# Values of other authors as cited in patent US20210154335A1, “DYE AGGREGATES-CONTAINING NANOPARTICLES AND USES THEREOF” (BOARD OF REGENTS, THE UNIVERSITY OF TEXAS SYSTEM, priority 2019, published 2021).
smiles,measurement,value
"CC1(C)C(/C=C/C=C/C=C/C=C2\N(CCCCS(=O)(=O)O)c3ccc4ccccc4c3C2(C)C)=[N+](CCCCS(=O)(=O)[O-])c2ccc3ccccc3c21 [ICG, indocyanine green]",solubility limit in aqueous solutions,1150 µg/mL
